These are literature values, as cited in patent EP0692191A1, “UTILIZATION OF PHENYL COMPOUNDS FOR THE CONTROL OF PHYTOPARASITE NEMATODES” (UNIVERSIDAD DE LA LAGUNA, priority 1993, dated 1995).

For the data set the following is noted: comparison values on the scale of Repeto; cited from earlier work.

In the case of CdCl2, the “toxisches Potential pT50” value is 2,13.
